According to PubChem BioAssay (NCI):
Several values for one entry are separate records, joined by “and”; a condition that tells them apart may be missing. Equal entries are not always repeated. Only a part is listed here, and it is no random draw.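 For each line, cells grew in 96-well plates with the test compound present at a single concentration for 48 hours.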 Activity calls are given as the source filed them. The calls were made as follows: active = growth percent below 10; inactive = the rest.

tested on: PC-3 prostate; assay: NCI-60 one-dose screen, 48 h (100 = growth as untreated, 0 = no growth, -100 = all killed); conditions: 10 µM

Row | SMILES | growth
1 | NC(=NCCN/C(N)=N/[N+](=O)[O-])N[N+](=O)[O-] | inactive: 87%
2 | O=[N+]([O-])N(CCN(CC(Br)([N+](=O)[O-])[N+](=O)[O-])[N+](=O)[O-])CC(Br)([N+](=O)[O-])[N+](=O)[O-] | inactive: 96.7%
3 | CN(C)Nc1c([N+](=O)[O-])cc([N+](=O)[O-])cc1[N+](=O)[O-] | inactive: 97.8%
4 | O=[N+]([O-])OCCOc1ccc([N+](=O)[O-])cc1[N+](=O)[O-] | inactive: 84.9%
5 | O=[N+]([O-])c1cc([N+](=O)[O-])c(C(F)(F)F)c([N+](=O)[O-])c1O | inactive: 93.5%
6 | CCOC(=O)CSc1c(N)c(C)nn1C.O=[N+]([O-])c1cc([N+](=O)[O-])c(O)c([N+](=O)[O-])c1 | inactive: 100%
7 | CCN(C)CC.O=[N+]([O-])c1cc([N+](=O)[O-])c(O)c([N+](=O)[O-])c1 | inactive: 104%
8 | OCCSCCO | inactive: 104%
9 | CC(C)N1CCN(CCOC(=O)C(O)(c2ccccc2)c2ccccc2)CC1 | inactive: 77.1%
10 | O=[N+]([O-])c1ccc(Oc2c([N+](=O)[O-])cc([N+](=O)[O-])cc2[N+](=O)[O-])cc1 | inactive: 97.8%
11 | O=C(Cl)c1c([N+](=O)[O-])cc([N+](=O)[O-])cc1[N+](=O)[O-] | inactive: 77.5%
12 | O=[N+]([O-])c1cc([N+](=O)[O-])c(Nc2ccc(Cl)cc2)c([N+](=O)[O-])c1 | active: -4.61%
13 | CNc1ccccc1.O=[N+]([O-])c1cc([N+](=O)[O-])c(O)c([N+](=O)[O-])c1 | inactive: 106%
14 | CCOP(=O)(CC)OCC | inactive: 96.6%
15 | O=[N+]([O-])c1cc([N+](=O)[O-])c(O)c([N+](=O)[O-])c1.c1ccnnc1 | inactive: 98.2%
16 | CCCOP(=S)(Cl)OCCC | inactive: 94.4%
17 | CN(C)CCS | inactive: 96.8% and inactive: 94.9%
18 | CCN(CC)CCS | inactive: 96.2%
19 | CN(CCCl)CCCCCCCl | inactive: 88.3%
20 | Cc1ccc(Nc2c([N+](=O)[O-])cc([N+](=O)[O-])cc2[N+](=O)[O-])cc1 | inactive: 74.2%
21 | CN1CCN(CCOC(=O)C(O)(c2ccccc2)c2ccccc2)CC1 | inactive: 97.9%
22 | NN/C(N)=N/[N+](=O)[O-] | inactive: 109%
23 | CP(=S)(Cl)N(CCCl)CCCl (centres undefined) | inactive: 90.7%
24 | CC[N+](C)(CC)Cc1cc(Cc2ccccc2)ccc1OC(=O)N(C)C | inactive: 101%
25 | Clc1ccccc1SCCBr | inactive: 92.9%
26 | CP(=O)(OCCCCl)N(CCCl)CCCl (centres undefined) | inactive: 105%
27 | O=[N+]([O-])c1cccc([N+](=O)[O-])c1O | inactive: 107%
28 | COC(=O)C(O)(c1ccccc1)c1ccccc1 | inactive: 95.9%
29 | Cc1c([N+](=O)[O-])c(C)c([N+](=O)[O-])c(Nc2c([N+](=O)[O-])c(C)c([N+](=O)[O-])c(C)c2[N+](=O)[O-])c1[N+](=O)[O-] | active: 2.07%

tested on: SK-MEL-5 melanoma; assay: as above; conditions: 10 µM

Row | SMILES | growth
30 | NC(=NCCN/C(N)=N/[N+](=O)[O-])N[N+](=O)[O-] | inactive: 104%
31 | O=[N+]([O-])N(CCN(CC(Br)([N+](=O)[O-])[N+](=O)[O-])[N+](=O)[O-])CC(Br)([N+](=O)[O-])[N+](=O)[O-] | inactive: 101%
32 | CN(C)Nc1c([N+](=O)[O-])cc([N+](=O)[O-])cc1[N+](=O)[O-] | inactive: 99.7%
33 | O=[N+]([O-])OCCOc1ccc([N+](=O)[O-])cc1[N+](=O)[O-] | inactive: 99.2%
34 | N=C(N)N(N)[N+](=O)[O-] | inactive: 111%
35 | O=[N+]([O-])c1cc([N+](=O)[O-])c(C(F)(F)F)c([N+](=O)[O-])c1O | inactive: 85.9%
36 | CCOC(=O)CSc1c(N)c(C)nn1C.O=[N+]([O-])c1cc([N+](=O)[O-])c(O)c([N+](=O)[O-])c1 | inactive: 104%
37 | O=[N+]([O-])c1ccc(OP2(=O)COCCO2)cc1 (centres undefined) | inactive: 108%
38 | CCN(C)CC.O=[N+]([O-])c1cc([N+](=O)[O-])c(O)c([N+](=O)[O-])c1 | inactive: 100%
39 | CC(C)N1CCN(CCOC(=O)C(O)(c2ccccc2)c2ccccc2)CC1 | inactive: 99.5%
40 | O=[N+]([O-])c1ccc(Oc2c([N+](=O)[O-])cc([N+](=O)[O-])cc2[N+](=O)[O-])cc1 | inactive: 98.6%
41 | O=C(Cl)c1c([N+](=O)[O-])cc([N+](=O)[O-])cc1[N+](=O)[O-] | inactive: 83.5%
42 | O=[N+]([O-])c1cc([N+](=O)[O-])c(Nc2ccc(Cl)cc2)c([N+](=O)[O-])c1 | inactive: 81.4%
43 | CNc1ccccc1.O=[N+]([O-])c1cc([N+](=O)[O-])c(O)c([N+](=O)[O-])c1 | inactive: 100%
44 | CCOP(=O)(CC)OCC | inactive: 101%
45 | O=[N+]([O-])c1cc([N+](=O)[O-])c(O)c([N+](=O)[O-])c1.c1ccnnc1 | inactive: 102%
46 | CCCOP(=S)(Cl)OCCC | inactive: 102%
47 | CN(C)CCS | inactive: 108% and inactive: 116%
48 | CCN(CC)CCS | inactive: 108%
49 | CN(CCCl)CCCCCCCl | inactive: 103%
50 | Cc1ccc(Nc2c([N+](=O)[O-])cc([N+](=O)[O-])cc2[N+](=O)[O-])cc1 | inactive: 89.4%
51 | CN1CCN(CCOC(=O)C(O)(c2ccccc2)c2ccccc2)CC1 | inactive: 95.7%
52 | NN/C(N)=N/[N+](=O)[O-] | inactive: 106%
53 | CP(=S)(Cl)N(CCCl)CCCl (centres undefined) | inactive: 108%
54 | CC[N+](C)(CC)Cc1cc(Cc2ccccc2)ccc1OC(=O)N(C)C | inactive: 106%
55 | Clc1ccccc1SCCBr | inactive: 101%
56 | CP(=O)(OCCCCl)N(CCCl)CCCl (centres undefined) | inactive: 96.9%
57 | O=[N+]([O-])c1cccc([N+](=O)[O-])c1O | inactive: 108%
58 | COC(=O)C(O)(c1ccccc1)c1ccccc1 | inactive: 99.9%
59 | Cc1c([N+](=O)[O-])c(C)c([N+](=O)[O-])c(Nc2c([N+](=O)[O-])c(C)c([N+](=O)[O-])c(C)c2[N+](=O)[O-])c1[N+](=O)[O-] | active: 5.11%
